Screening data from PubChem.
RAD54 branch: inhibitors of human RAD54 branch migration. Q92698. RAD54 Holliday junction branch migration, FAM/BHQ fluorescence. inhibition, % at 10.4 µM. actives 0.14% (n = 360,000);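 active = mean normalized replicate activity at least 40 and at least half of replicates scoring 40 or more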;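 note: inhibitors cause a drop in the FAM fluorescence signal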
E-selectin induc: induces E-selectin expression in human endothelial cells; HUVEC E-selectin immunofluorescence imaging; normalized: neutral wells 0, TNF-alpha wells 100; activation, % at 7.58 µM; actives 0.37% (n = 260,000); AID 686992;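 active = mean E-selectin-positive cell signal at least 10% of the positive control, reached in at least 60% of replicates, without over 20% cell loss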
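System: HUVEC, human umbilical vein endothelial cells; quantity: 3,000 cells/well; buffer or medium: EGM-2 medium, gelatin-coated wells; dosing: single-point compound dose; detection: immunofluorescence imaging; evaluation: % PE-positive cells; benchmarks: TNF-alpha, DMSO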
SIRT5 block: sirtuin-5 (human) deacylase inhibition; Q9NXA8; Purified SirT5, succinyl-peptide AMC, trypsin-coupled fluorescence; inhibition, % at 15 µM; actives 1.1% (n = 330,000); AID 652115; in the data active = inhibition above about 15%
Yeast UUG start-1: modulators of yeast start codon fidelity, primary screen, whole organism, S. cerevisiae, single point, plate reader; S. cerevisiae UUG-firefly luciferase reporter, luminescence/redox ratio; activity score, % at 18.7 µM; 0.13% of 350,000 active; AID 602363, 2012;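 active = replicate mean at a twofold rise or more, about +100% in these data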;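 also: firefly luciferase made from a UUG start codon reports start codon fidelity; reporter light over untreated wells divided by growth signal over untreated wells; some hits fall short of that in this replicate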
RAD52 anneal inh: blocks human RAD52 DNA annealing | recombinant RAD52 DNA annealing, FRET fluorescence | inhibition, % at 18.7 µM | P43351 | actives 0.46% (n = 360,000);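 active = every replicate showing at least 50% inhibition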
MLL AF4-AF9 inh: blocks AF4 peptide binding to human AF9; AlphaScreen, biotin-AF4 peptide binding to FLAG-AF9; AID 651704; actives 0.47% (n = 350,000); inhibition, % at 10 µM;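 active = every replicate reaching a set inhibition limit, whatever the replicate mean, cut at about 25% in these data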
Yeast UUG start-2: modulators of start codon recognition fidelity in yeast; shares compounds with Yeast UUG start-1; S. cerevisiae UUG-start firefly luciferase, luminescence, 4 h; 100% means double the DMSO signal; activation, % at 38 µM; 540 tested, under 10 active;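 active = signal increase whose fitted curve reaches an absolute level of 40 at a concentration under 10 µM; inactive = activity opposite to the expected increase, or the rest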
Numbers stand for hits; i = inactive; nt = not tested or not shown; ! = not active in a repeat. Only some compounds are listed: those with a hit (about 1.8% of all), similar ones and a draw of the others.

SMILES | RAD54 branch | E-selectin induc | SIRT5 block | Yeast UUG start-1 | RAD52 anneal inh | MLL AF4-AF9 inh | Yeast UUG start-2
C/C=C/c1ccc([C@@H]2[C@H](CO)N3C(=O)CN(S(=O)(=O)c4cccc(F)c4)C[C@@H]23)cc1 | nt | i | i | nt | i | i | nt
Cc1cc(C)c(S(=O)(=O)N2CCN(S(=O)(=O)N3CCC(C)CC3)CC2)c(C)c1 | i | i | i | active | i | i | i
C[C@H]1CN([C@@H](C)CO)C(=O)c2cc(-c3ccc(C#N)cc3)cnc2O[C@H]1CN(C)C(=O)c1cccnc1 | i | i | i | i | i | i | nt
C[C@H](CO)N1C[C@H](C)[C@H](CN(C)C(=O)c2cccnc2)Oc2ncc(-c3ccc(C#N)cc3)cc2C1=O | i | i | i | 154 | i | i | i
C[C@@H]1CN([C@@H](C)CO)C(=O)c2cc(-c3cccc(F)c3)cnc2O[C@@H]1CN(C)C(=O)c1cccc(F)c1 | i | i | i | active | i | i | i
CCCNC(=O)[C@H]1[C@H](CO)[C@H]2Cn3c(ccc(-c4ccc(OC)cc4)c3=O)[C@@H]1N2CC | nt | i | i | nt | i | i | nt
CCN1CCN(Cc2ccc(NC(=O)c3ccc(C)c(NC(=O)N4CCNC4=O)c3)cc2C(F)(F)F)CC1 | i | i | i | 131! | i | i | i
c1ccc2c(c1)nc(N1CCOCC1)c1nnnn12 | i | i | i | i | i | i | nt
C1CN(c2nc3nonc3n3nnnc23)CCO1 | i | nt | nt | 442 | nt | nt | i
Cc1noc(C)c1S(=O)(=O)Nc1ccc2c(c1)C(=O)N([C@@H](C)CO)C[C@@H](C)[C@@H](CN(C)C(=O)c1ccccc1)OCCCC[C@@H](C)O2 | i | i | i | i | i | i | nt
CN(C)CCCN1C(=O)[C@@]2(Cc3ccccc31)c1ccccc1C(=O)N(Cc1ccccc1C(F)(F)F)[C@H]2c1ccc(CO)cc1 | i | nt | i | 173 | i | i | i
COCCCN1C(=O)[C@@]2(Cc3ccccc31)c1ccccc1C(=O)N(Cc1ccccc1)[C@H]2c1ccc(CO)cc1 | i | nt | i | 169 | i | i | i
O=C(C[C@@H]1CC[C@H]2[C@@H](COC[C@@H](O)CN2S(=O)(=O)c2ccc(F)cc2)O1)NCC1CC1 | i | i | i | nt | i | i | nt
COc1nc(-c2ccccc2)ccc1-c1noc(-c2cccs2)n1 | i | nt | nt | i | nt | nt | nt
COc1nc(C)ccc1-c1noc(-c2cccs2)n1 | i | nt | i | 528 | i | i | i
Cc1ccc(-c2cnc3c(c2)C(=O)N([C@@H](C)CO)C[C@@H](C)[C@H](CN(C)CC2CCCCC2)O3)cc1 | i | i | i | i | i | i | nt
O=C(CN1CCOCC1)NCC[C@@H]1CC[C@H](NC(=O)Nc2ccc(Cl)cc2)[C@@H](CO)O1 | i | i | i | 119 | i | i | i
O=C(CN1CCOCC1)NCC[C@H]1CC[C@H](NC(=O)Nc2ccc(F)cc2)[C@H](CO)O1 | i | i | i | 184 | i | i | i
Cc1c(P(=O)(c2ccccc2)c2ccccc2)c2ccccc2n1C | i | i | i | 173 | i | i | i
O=C(NCC1CC1)c1ccc(-n2ccnc2)c2ccoc12 | i | i | i | 163 | i | i | i
CS(=O)(=O)Nc1cccc(NC(=O)c2ccc(-n3ccnc3)c3ccoc23)c1 | i | i | i | 115 | i | i | i
Cn1nccc1-c1ccc(C(=O)Nc2cccc(NS(C)(=O)=O)c2)c2occc12 | i | i | i | i | i | i | nt
CCOc1ccccc1C(=O)NCC(=O)OCC(=O)NCCc1ccc(S(N)(=O)=O)cc1 | i | nt | nt | 555 | nt | nt | i
NS(=O)(=O)c1ccc(CCNC(=O)c2ccccc2OCc2ccc(F)cc2)cc1 | i | i | i | i | i | i | nt
CC(C)C(=O)Nc1cccc(N2CCN(CCCN3C(=O)C4CCCCN4C3=O)CC2)c1 (stereo unspecified) | i | i | i | 105 | i | i | i
C[C@H]1CCCCO[C@H](CN(C)CC2CC2)[C@@H](C)CN([C@@H](C)CO)C(=O)c2cc(NC(=O)c3ccncc3)ccc2O1 | i | i | i | i | i | i | nt
Cc1ccc(-c2nc3ccc(C)cn3c2Cc2ccsc2)cc1 | i | i | i | i | i | i | nt
Cc1ccc2nc(C(C)(C)C)c(Cc3ccsc3)n2c1 | i | i | i | 153 | i | i | i
Cc1cnn(Cc2ccccc2)c1N | i | nt | nt | 605 | nt | nt | i
